From patent US9242996B2 (Novartis AG, priority 2013, dated 2016)

Chains of the proteins cited; added tags and fusions are not shown.
UniProt P28482, whole entry: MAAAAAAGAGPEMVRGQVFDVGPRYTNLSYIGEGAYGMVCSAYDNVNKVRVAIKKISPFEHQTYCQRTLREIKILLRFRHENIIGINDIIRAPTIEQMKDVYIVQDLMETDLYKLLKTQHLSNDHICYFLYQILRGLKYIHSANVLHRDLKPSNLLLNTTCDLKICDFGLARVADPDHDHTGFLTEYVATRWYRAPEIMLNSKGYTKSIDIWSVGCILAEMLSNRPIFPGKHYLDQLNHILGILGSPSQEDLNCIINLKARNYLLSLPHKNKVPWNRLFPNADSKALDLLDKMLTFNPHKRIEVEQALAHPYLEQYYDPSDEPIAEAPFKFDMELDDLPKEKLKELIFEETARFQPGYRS

Tests used:
Type in all cases: biochemical
activated ERK2 [1] = biological target: T1, activated ERK2 (Homo sapiens (Human), UniProt P28482); assay: Activated ERK2 kinase assay, ERK2 New conditions (AlphaScreen, ERKtide phosphorylation); settings: 0.25 nM ERK2, 200 nM ERKtide peptide, 35 μM ATP, 30 min preincubation
Experimental: The following assay conditions (ERK2 New) were used for some compounds in the following Table, and provide substantially similarIC50s to the assay described above, for IC50 about 0.1 μM or above. […]
Compound potency against activated ERK2 is determined using a kinase assay that measures ERK2-catalyzed phosphorylation of biotinylated ERKtide peptide substrate ([Biotin]-AH[…]-[NH2], the peptide sequence derived from EGF receptor: SEQ ID NO:1). The assay is carried out in 50 mM HEPES [pH 7.5], 5 mM MgCl2, 1 mM DTT, 0.01% Tween-20, 0.05% BSA using 0.25 nM ERK2, 200 nM ERKtide peptide and 35 μM ATP (all concentrations are final in the reaction) in a total volume of 10.25 μL. […] Compound dilution series are prepared in 100% DMSO. ERK2 is preincubated with compounds for 30 minutes at ambient temperature. Reaction is initiated by addition of a substrate cocktail of ERKtide peptide and ATP and is allowed to proceed for 2-3 hours at ambient temperature. Reaction is terminated by addition of 10 μL of a 2× stop buffer consisting of 100 mM Tris-Cl [pH 7.5], 25 mM EDTA, 0.01% Tween 20, 10 μg/mL of AlphaScreen Protein A Acceptor Beads, 10 μg/mL of Streptavidin Donor Beads (PerkinElmer, Waltham, Mass.), and 1.4 μg/mL phospho-EGF Receptor (Thr669) antibody (Cat #3056, Cell Signaling Technology, Danvers, Mass.). Terminated reactions are read, after overnight incubation in the dark, on an EnVision Multilabel Plate Reader (PerkinElmer, Waltham, Mass.), with excitation and emission wavelengths set to 680 nm and 570 nm, respectively. IC50 values are determined using a four-parameter fit.

ERK2 = ERK2 (Homo sapiens (Human), UniProt P28482); assay: ERK2 Alphascreen
activated ERK2 [2] = biological target: T1, activated ERK2; assay: Activated ERK2 (20 pM) Kinase Assay (AlphaScreen, ERKtide phosphorylation); settings: 0.02 nM ERK2, 400 nM ERKtide peptide, 35 μM ATP, 30 min preincubation
Experimental: Activated ERK2 (20 pM) Kinase Assay:
Compound potency against activated ERK2 was determined using a kinase assay that measures ERK2-catalyzed phosphorylation of biotinylated ERKtide peptide substrate ([Biotin]-AH[…]-[NH2], the peptide sequence derived from EGF receptor: SEQ ID NO:1). The assay was carried out in 20 mM HEPES [pH 7.5], 5 mM MgCl2, 1 mM DTT, 0.01% Tween-20, 0.05% BSA using 0.02 nM ERK2, 400 nM ERKtide peptide and 35 μM ATP (all concentrations are final in the reaction) in a total volume of 10.25 μL. […] Compound dilution series were prepared in 100% DMSO. ERK2 was preincubated with compounds for 30 minutes at ambient temperature. Reaction was initiated by addition of a substrate cocktail of ERKtide peptide and ATP and was allowed to proceed for 4 hours at ambient temperature. Reaction was terminated by addition of 10 μL of a 2× stop buffer consisting of 100 mM Tris-Cl [pH 7.5], 25 mM EDTA, 0.01% Tween 20, 20 μg/mL of AlphaScreen Protein A Acceptor Beads, 20 μg/mL of Streptavidin Donor Beads (PerkinElmer, Waltham, Mass.), and 1:1000 dilution phospho-EGF Receptor (Thr669) antibody (Cat #8808, Cell Signaling Technology, Danvers, Mass.). Terminated reactions were read, after overnight incubation in the dark, on an EnVision Multilabel Plate Reader (PerkinElmer, Waltham, Mass.), with excitation and emission wavelengths set to 680 nm and 570 nm, respectively. IC50 values were determined using a four-parameter fit.

IC50 (activated ERK2 [1])	IC50 (ERK2)	IC50 (activated ERK2 [2])	Structure (SMILES)
32.4 nM	33.3 nM	–	Nc1ncc(C2CCS(=O)(=O)CC2)cc1-c1ccc(C(=O)N[C@H](CO)c2ccccc2)c(F)c1 [Example 79, (S)-4-(2-amino-5-(1,1-dioxidotetrahydro-2H-thiopyran-4-yl)pyridin-3-yl)-2-fluoro-N-(2-hydroxy-1-phenylethyl)benzamide]
0.487 nM	0.166 nM	0.163 nM	Nc1ncc(-c2ccncc2)cc1-c1ccc(C(=O)N[C@H](CO)c2ccccc2)c(F)c1 [Example 81, (S)-4-(6-amino-[3,4′-bipyridin]-5-yl)-2-fluoro-N-(2-hydroxy-1-phenylethyl)benzamide]
–	91.3 nM	84.6 nM	C[C@@H]1CN(c2cnc(N)c(-c3ccc(C(=O)N[C@H](CO)c4ccccc4)c(F)c3)c2)C[C@H](C)O1 [Example 96, 4-(2-amino-5-((2S,6R)-2,6-dimethylmorpholino)pyridin-3-yl)-2-fluoro-N-((S)-2-hydroxy-1-phenylethyl)benzamide]
0.207 nM	0.183 nM	0.0842 nM	Nc1ncc(C2CCOCC2)nc1-c1ccc(C(=O)N[C@H]2C[C@@H]2c2ccccc2)c(F)c1 [Example 200, 4-(3-amino-6-(tetrahydro-2H-pyran-4-yl)pyrazin-2-yl)-2-fluoro-N-((1S,2R)-2-phenylcyclopropyl)benzamide]
–	3.08 nM	1.29 nM	Nc1ncc(C2CCOCC2)cc1-c1ccc(C(=O)N[C@H](CO)c2ccccc2)c(Cl)c1 [Example 73, (S)-4-(2-amino-5-(tetrahydro-2H-pyran-4-yl)pyridin-3-yl)-2-chloro-N-(2-hydroxy-1-phenylethyl)benzamide]
–	0.201 nM	0.21 nM	Nc1ncc(-c2ccncc2)nc1-c1ccc(C(=O)N[C@H](CO)c2ccccc2)c(F)c1 [Example 142, (S)-4-(3-amino-6-(pyridin-4-yl)pyrazin-2-yl)-2-fluoro-N-(2-hydroxy-1-phenylethyl)benzamide]
8.29 nM	7.64 nM	–	Nc1ncc(C2CCOCC2)nc1-c1ccc(C(=O)NCCc2ccccc2)c(F)c1 [Example 328, 4-(3-amino-6-(tetrahydro-2H-pyran-4-yl)pyrazin-2-yl)-2-fluoro-N-phenethyl-benzamide]
–	98.5 nM	60.9 nM	Nc1ncc(C2CCOCC2)cc1-c1ccc2c(c1)CCNC2=O [Example 439, 6-(2-amino-5-(tetrahydro-2H-pyran-4-yl)pyridin-3-yl)-3,4-dihydroiso-quinolin-1(2H)-one]
0.0914 nM	0.113 nM	0.0252 nM	Nc1ncc(C2CCOCC2)nc1-c1ccc(C(=O)N[C@H](CO)c2cccc(Cl)c2)c(F)c1 [Example 438, (S)-4-(3-amino-6-(tetrahydro-2H-pyran-4-yl)pyrazin-2-yl)-N-(1-(3-chlorophenyl)-2-hydroxyethyl)-2-fluorobenzamide]
